We go through two compounds from patent US20220387407A1 (priority 2021, published 2022).

The test system of experiment [1] is conscious rats. Put plainly: Analgesia assessment by tail-flick withdrawal assay in conscious rats. It counts as in vivo, Sprague-Dawley rats. As to conditions: fentanyl 25 μg/kg IV.
The subject of experiment [2] is freely-moving rats. Nature of the experiment: Ventilatory recordings (whole-body plethysmography) in freely-moving rats, fentanyl-induced respiratory depression. Particulars: L-NACme 500 mol/kg, 88.61 mg/kg IV, fentanyl 25 μg/kg IV after 10 min; FIG. 11.
Experiment [3] deals with isoflurane-anesthetized rats.

For the compound `COC(=O)[C@H](CS)NC(C)=O`, in experiment [1] (L-NACme 500 mol/kg IV at 10 AM, FIG. 12), the “development of tolerance to the analgesic responses elicited by the second injection of fentanyl at 4 PM, effect of L-NACme” value is recorded as “substantially blunted”. The “ventilatory depressant effects (Freq, TV, MV) of fentanyl, effect of L-NACme pretreatment” value in experiment [2] was “minimal effects”.

Take `CC1(C)CC(O)CC(C)(C)N1[O]` [Tempol, 4-hydroxy-2,2,6,6-tetramethylpiperidine-N-oxyl]: in experiment [1] (Tempol 100 mg/kg IV at 10 AM, FIG. 10), the “loss of analgesic effect of fentanyl at 4 PM, effect of Tempol given in the 10 AM study” value is given as “did not affect”. Further, the “analgesic effects (increases in tail-flick latency) of fentanyl, effect of Tempol” value in experiment [1] (Tempol 100 mg/kg IV, study commenced at 10 AM, FIG. 9) is on record as “not affected”. For the same compound, in experiment [3] (Tempol 100 mg/kg IV, then fentanyl 5 μg/kg IV), the “fentanyl-induced change in MV after Tempol pretreatment” value is on record as “returned to the elevated levels seen prior to injection of fentanyl”. The “peak decreases in cardiorespiratory parameters elicited by fentanyl, effect of Tempol” value in experiment [3] (Tempol 25, 50 or 100 mg/kg IV, fentanyl 5 μg/kg IV, FIG. 6) was “markedly diminishes”. The “total fentanyl-induced decreases in Freq, TV and MV, effect of Tempol” value in experiment [3] (Tempol 25, 50 or 100 mg/kg IV, fentanyl 5 μg/kg IV, FIG. 7 bottom panel) is on record as “substantially blunted”. Also, the “total fentanyl-induced decreases in MAP, DBP and SBP (but not HR), effect of Tempol” value in experiment [3] (Tempol 25, 50 or 100 mg/kg IV, fentanyl 5 μg/kg IV, FIG. 8 bottom panel) was “substantially blunted”. The “fentanyl-induced decreases in ventilatory parameters after Tempol pretreatment” value in experiment [3] (Tempol 25, 50 or 100 mg/kg IV, then fentanyl 5 μg/kg IV after 20 min, as the dose of Tempol was increased) was “progressively and substantially smaller decreases”. Besides, the “fentanyl-induced decreases in MAP, DBP and SBP after Tempol pretreatment” value in experiment [3] (Tempol 25, 50 or 100 mg/kg IV, then fentanyl 5 μg/kg IV, particularly reduced after 50 and 100 mg/kg) is reported as “markedly diminished”. Besides, the “cardiorespiratory depression elicited by an infusion of fentanyl, effect of a bolus injection of Tempol” value in experiment [3] (isoflurane-anesthetized rats, Tempol bolus during fentanyl infusion) is “immediately reversed”.
